In experiment [1] the test system is SR. The experiment in a line: NCI 60 cell line screen, sulforhodamine B, 48 h. In kind it is cell-based. Conditions: Homo sapiens, read-out: Log10 LC50 (converted).
For experiment [2], the system named is MALME-3M. The experiment in a line: NCI 60 cell line screen, sulforhodamine B, 48 h. In kind it is cell-based. Conditions: Homo sapiens, read-out: Log10 LC50 (converted).
Experiment [3] concerns the target chymotrypsin-like activity of rabbit muscle 20S proteasome (Oryctolagus cuniculus, UniProt G1T4Q9). The experiment in a line: In vitro inhibition of 20S proteasome, suc-LLVY-AMC. Conditions: chymotrypsin-like activity of purified 20S proteasomes.

The term IC50 denotes the concentration at which inhibition is half-maximal. Low readings indicate inhibition by little substance, high ones a need for much substance. Regarding `C[C@@]12OC(=O)[C@]1([C@@H](O)[C@@H]1C=CCCC1)NC(=O)[C@@H]2CCCl` [Salinosporamide A], the CC50 in experiment [1] and in experiment [2] was 64.6 µM in each case. The same compound gave an IC50 in experiment [3] of 0.002 µM.

For the origin of these results see patent US7572606B1 (Nereus Pharmaceuticals, Inc., priority 2005, dated 2009).
